The record followed here is patent publication US20080318845A1, “Selective Vpac2 Receptor Peptide Agonists” (priority 2004, published 2008).

In one experiment the target is T1, rat VPAC2 receptor (Rattus norvegicus, UniProt P35000).
T1 construct: expressed in transfected cells; host or cells: CHO-PO (transient)
T1 sequence (P35000 23-437): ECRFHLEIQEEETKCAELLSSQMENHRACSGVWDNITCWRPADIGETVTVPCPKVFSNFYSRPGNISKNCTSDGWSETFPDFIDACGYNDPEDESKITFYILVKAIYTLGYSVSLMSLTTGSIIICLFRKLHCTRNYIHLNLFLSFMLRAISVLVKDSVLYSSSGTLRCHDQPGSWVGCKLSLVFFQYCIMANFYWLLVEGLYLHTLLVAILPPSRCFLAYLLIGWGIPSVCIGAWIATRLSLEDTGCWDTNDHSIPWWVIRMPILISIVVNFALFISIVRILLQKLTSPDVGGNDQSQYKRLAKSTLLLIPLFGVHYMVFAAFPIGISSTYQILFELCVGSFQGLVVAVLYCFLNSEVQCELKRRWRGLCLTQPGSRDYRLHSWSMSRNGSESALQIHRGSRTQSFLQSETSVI
The experiment can be described thus: DiscoveRx cAMP potency, CHO-PO cells transiently transfected with rat VPAC2. The experiment is classed as cell-based. The note with it: read-out: rVPAC2 EC50 (DiscoveRx). An excerpt:
Rat receptor selectivity was estimated by comparing functional potency (cAMP generation) in CHO-PO cells transiently expressing rat VPAC1 or rat VPAC2 receptors.

The target of experiment [1] is T2, human PAC1 (Homo sapiens, UniProt P41586).
T2 sequence (P41586 21-468): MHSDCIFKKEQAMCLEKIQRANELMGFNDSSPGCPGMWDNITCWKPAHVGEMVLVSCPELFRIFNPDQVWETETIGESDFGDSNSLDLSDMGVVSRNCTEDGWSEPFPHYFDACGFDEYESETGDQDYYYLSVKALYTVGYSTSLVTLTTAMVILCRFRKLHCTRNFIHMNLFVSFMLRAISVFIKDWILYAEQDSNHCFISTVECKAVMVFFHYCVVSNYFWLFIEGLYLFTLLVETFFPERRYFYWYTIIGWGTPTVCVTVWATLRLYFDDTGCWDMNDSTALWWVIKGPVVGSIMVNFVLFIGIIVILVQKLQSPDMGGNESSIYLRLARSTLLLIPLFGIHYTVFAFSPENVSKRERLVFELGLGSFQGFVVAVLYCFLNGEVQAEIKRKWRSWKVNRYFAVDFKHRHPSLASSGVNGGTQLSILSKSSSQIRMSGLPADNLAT
The experiment can be described thus: Filter binding assay, membranes of cells transiently transfected with human PAC1, 125I-labeled PACAP-27 tracer. The arrangement: expressed in transfected cells; host or cells: membranes of transiently transfected cells. The note with it: 125I-PACAP-27 tracer; read-out: Human receptor binding IC50 PAC1. Here is the method: In order to prepare the filter plates, the presoak solution is aspirated by vacuum filtration. The plates are flushed twice with 200 μL flush buffer. 200 μL blocking buffer is added to the filter plate. The filter plate is then incubated with 200 μL presoak solution for 1 hour at room temperature.
The assay plate is filled with 25 μL assay buffer, 25 μL membranes (2.5 μg) suspended in assay buffer, 25 μL compound (agonist) in assay buffer, and 25 μL tracer (about 40000 cpm) in assay buffer. The filled plate is incubated for 1 hour with shaking.
(§1) The transfer from assay plate to filter plate is conducted. The blocking buffer is aspirated by vacuum filtration and washed two times with flush buffer. 90 μL is transferred from the assay plate to the filter plate. The 90 μL transferred from assay plate is aspirated and washed three times with 200 μL flush buffer. The plastic support is removed. It is dried for 1 hour at 60° C. 30 μL Microscint is added. The count is performed.
(§2) Values reported are single results or the mean of two or more independent runs.

The target of experiment [2] is T2, human PAC1. The experiment can be described thus: DiscoveRx cAMP in vitro potency, CHO-PO cells transiently transfected with human PAC1. The class given is cell-based. The arrangement: expressed in transfected cells; host or cells: CHO-PO (transient, Lipofectamine). As to conditions: cAMP generation, read-out: Human PAC1R: DiscoveRx EC50.
The target in the next experiment is T3, human VPAC2 (Homo sapiens, UniProt P41587).
T3 construct: expressed in transfected cells
T3 sequence (P41587 24-438): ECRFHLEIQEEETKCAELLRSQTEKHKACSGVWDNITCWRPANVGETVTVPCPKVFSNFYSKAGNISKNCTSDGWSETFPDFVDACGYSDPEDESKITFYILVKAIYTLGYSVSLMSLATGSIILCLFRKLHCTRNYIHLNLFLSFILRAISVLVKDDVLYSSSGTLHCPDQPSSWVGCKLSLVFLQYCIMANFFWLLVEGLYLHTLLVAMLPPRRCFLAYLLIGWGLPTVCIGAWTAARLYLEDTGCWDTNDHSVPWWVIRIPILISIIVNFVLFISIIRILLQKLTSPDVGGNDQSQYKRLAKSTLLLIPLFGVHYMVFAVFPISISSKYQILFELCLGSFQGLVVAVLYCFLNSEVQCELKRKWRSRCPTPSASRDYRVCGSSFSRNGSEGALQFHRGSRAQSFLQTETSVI
As to the kind of experiment: Filter binding assay, membranes of stable VPAC2 cell line, 125I-labeled VIP tracer. The note with it: read-out: Human receptor binding IC50 VPAC2; 125I-VIP tracer. Here is the method: In order to prepare the filter plates, the presoak solution is aspirated by vacuum filtration. The plates are flushed twice with 200 μL flush buffer. 200 μL blocking buffer is added to the filter plate.
The filled plate is incubated for 1 hour with shaking.
as §1, §2

The term EC50 denotes the midpoint of the concentration-response curve. What is called IC50 is the concentration that inhibits the measured activity by half.

Where only a bound is given, the exact number is not on record here.

As for vasoactive intestinal peptide [VIP], the EC50 on rat VPAC2 receptor was 0.79 nM; on human PAC1 [2], greater than 10 nM. Besides, the 50% inhibitory concentration (IC50) at human PAC1 [1] is greater than 1000 nM.
Turning to “pituitary adenylate cyclase-activating polypeptide [PACAP-27]”, the IC50 on human VPAC2 amounted to 2.52 nM.
